Consider 60 substances from patent publication US20240360179A1, “STAPLED PEPTIDES AND METHODS THEREOF” (FOG PHARMACEUTICALS, INC., priority 2021, published 2024).

By UniProt entry, the sequences of proteins in these tests, tags left out.
UniProt P35222, whole entry: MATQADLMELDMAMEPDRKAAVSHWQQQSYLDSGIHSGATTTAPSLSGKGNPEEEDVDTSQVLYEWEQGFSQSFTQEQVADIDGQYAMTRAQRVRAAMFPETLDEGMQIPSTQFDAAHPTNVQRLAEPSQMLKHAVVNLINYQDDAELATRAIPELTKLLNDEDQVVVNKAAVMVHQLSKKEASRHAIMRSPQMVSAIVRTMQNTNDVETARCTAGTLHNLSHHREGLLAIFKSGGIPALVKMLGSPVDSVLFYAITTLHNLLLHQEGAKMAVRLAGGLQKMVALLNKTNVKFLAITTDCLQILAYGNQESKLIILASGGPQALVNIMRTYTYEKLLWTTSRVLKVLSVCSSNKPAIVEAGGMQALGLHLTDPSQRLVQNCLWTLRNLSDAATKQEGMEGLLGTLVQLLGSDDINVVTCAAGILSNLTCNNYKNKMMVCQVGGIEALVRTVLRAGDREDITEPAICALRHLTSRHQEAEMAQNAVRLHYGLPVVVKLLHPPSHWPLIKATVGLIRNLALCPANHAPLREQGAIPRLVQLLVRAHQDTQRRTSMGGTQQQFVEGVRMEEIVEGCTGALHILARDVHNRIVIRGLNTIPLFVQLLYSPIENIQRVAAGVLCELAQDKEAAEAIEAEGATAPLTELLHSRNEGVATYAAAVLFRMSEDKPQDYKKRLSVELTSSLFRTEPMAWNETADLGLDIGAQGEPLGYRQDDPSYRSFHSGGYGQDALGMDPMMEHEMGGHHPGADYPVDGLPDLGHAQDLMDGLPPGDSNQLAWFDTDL

The target of the assay is T1, full-length B-Catenin (Uniprot ID P35222) (Homo sapiens, UniProt P35222).
T1 construct: 10 nM full-length B-Catenin (Uniprot ID P35222)
It counts as binding. The following applies: competition fluorescence polarization; read-out: beta-Catenin FP IC50. (Fluorescence polarisation rises when a labelled molecule tumbles more slowly, as on binding a larger partner.)
For the substance “Ac-PL3-Asp-Npg-B5-Asp-3COOHF-Aib-Ala-Phe-Lys*3-PyrS2-[3PyAc]2NH2F-BztA-GlnR*3-Ala-NH2 [I-1671]”, the half-maximal inhibitory concentration (IC50) lay in the range of 200 to 750 nM.

In the case of “Ac-PL3-Asp-Npg-B5-Asp-TfeGA-Aib-Ala-Phe-Lys*3-PyrS2-2F3MeF-BztA-GlnR*3-Leu-Ser-NH2 [I-888]”, the half-maximal inhibitory concentration (IC50) lay within 50 to 200 nM.

For “Ac-PL3-Asp-Npg-B5-Asp-3COOHF-Aib-Ala-Phe-Lys*3-PyrS2-3Thi-BztA-GlnR*3-Val-Ala-NH2 [I-403]”, the IC50 was below 50 nM.

“Ac-PL3-Asp-Chg-B5-Asp-3COOHF-Aib-Ala-Phe-Lys*3-PyrS2-3Thi-34ClF-GlnR*3-NH2 [I-1037]”: the IC50 was below 50 nM.

Take “Ac-PL3-Asp-Ile-B5-Asp-3COOHF-Aib-Ala-Phe-Lys*3-PyrS2-3Thi-34ClF-GlnR*3-Val-Glu-Ala-NH2 [I-1263]”: the IC50 was below 50 nM.

As to “Ac-PL3-Asp-Npg-B5-Asp-3COOHF-Aib-Ala-Phe-[C3]Cys-PyrS2-3Thi-BztA-Pen-Ala-NH2 [I-1459]”, the IC50 lay within 50 to 200 nM.

As to “Ac-S5-Leu-Asp-DipA-B5-Asp-3COOHF-Aib-Ala-Phe-Lys*3-PyrS1-Phe-34ClF-GlnR*3-NH2 [I-1785]”, the IC50 is below 50 nM.

With “Ac-S6-Leu-Asp-Val-B5-Asp-3COOHF-Aib-Ala-Phe-Lys*3-PyrS1-3Thi-BztA-GlnR*3-NH2 [I-1938]”, the half-maximal inhibitory concentration (IC50) is below 50 nM.

Consider “Ac-PL3-Asp-Chg-B5-Asp-3COOHF-CyLeu-Ala-Phe-Lys*3-PyrS2-Phe-34ClF-GlnR*3-NH2 [I-1056]”, for which the half-inhibitory concentration (IC50) is below 50 nM.

In the case of “Ac-PL3-Asp-Cha-B5-Asp-3COOHF-Aib-Ala-Phe-Lys*3-PyrS2-Phe-BztA-GlnR*3-Leu-NH2 [I-1645]”, the IC50 was below 50 nM.

“Ac-PL3-Asp-Npg-B5-Asp-3COOHF-Aib-Ala-3CNF-Lys*3-PyrS2-3Thi-BztA-GlnR*3-Ala-NH2 [I-587]”: the IC50 is below 50 nM.

As for “Ac-PL3-Asp-Ile-B5-Asp-3COOHF-Aib-Ala-Phe-Lys*3-PyrS2-3Thi-34MeF-GlnR*3-Ala-NH2 [I-1099]”, the 50% inhibitory concentration (IC50) was below 50 nM.

Take “Ac-PL3-Asp-Leu-B5-Asp-3COOHF-GlnR*3-Ala-Phe-Ala-PyrS2-Phe-34ClF-GlnT4CyMe*3-NH2 [I-1839]”: the IC50 is below 50 nM.

Consider “Ac-PL3-Asp-DipA-B5-Asp-3COOHF-CyLeu-Ala-Phe-Lys*3-PyrS2-2F3MeF-34ClF-GlnR*3-Phe-NH2 [I-1776]”, for which the IC50 was below 50 nM.

Consider “Ac-PL3-Asp-Ile-B5-Asp-3COOHF-Aib-Ala-Phe-Lys*3-PyrS2-hCha-34ClF-GlnR*3-Ala-NH2 [I-1328]”, for which the half-maximal inhibitory concentration (IC50) was below 50 nM.

On to “Ac-PL3-Asp-Npg-B5-Asp-TfeGA-Aib-Ala-Phe-Lys*3-PyrS2-Phe-BztA-GlnR*3-NH2 [I-878]”, for which the IC50 is below 50 nM.

For “Ac-S5-Asp-Asn-Npg-B5-Asp-3COOHF-Aib-Ala-Phe-Lys*3-PyrS2-Phe-34ClF-GlnR*3-NH2 [I-1674]”, the IC50 was in the range of 200 to 750 nM.

In the case of “Ac-PL3-Asp-Ile-B5-Asp-3COOHF-Aib-Ala-Phe-hGlnR*3-PyrS2-Phe-34ClF-1MeK*3-NH2 [I-1374]”, the IC50 was below 50 nM.

In the case of “Ac-PL3-AspSH-Npg-B5-Asp-3COOHF-Aib-Ala-Phe-Lys*3-PyrS2-3Thi-BztA-GlnR*3-Ala-NH2 [I-1301]”, the IC50 lay within 50 to 200 nM.

Regarding “Ac-Asp-Ala-S5-Ala-Asp-Npg-B5-Asp-3COOHF-Aib-Ala-Phe-Lys*3-PyrS2-3Thi-BztA-GlnR*3-Ala [I-1285]”, the IC50 is below 50 nM.

With “Ac-PL3-isoDAsp-Npg-B5-Asp-3COOHF-Aib-Ala-Phe-Lys*3-PyrS2-3Thi-BztA-GlnR*3-Ala-NH2 [I-963]”, the IC50 fell in the range of 50 to 200 nM.

For the substance “Ac-PL3-Gln-Npg-B5-Asp-3COOHF-Aib-Ala-Phe-Lys*3-PyrS2-3Thi-BztA-GlnR*3-Ala-NH2 [I-929]”, the IC50 lay within 200 to 750 nM.

“124TriAc-PL3-Asp-Npg-B5-Asp-3COOHF-Aib-Ala-Phe-Lys*3-PyrS2-3Thi-BztA-GlnR*3-Ala-NH2 [I-1075]”: the IC50 was below 50 nM.

With “Ac-PL3-Asp-Ile-B5-Asp-3COOHF-Aib-Ala-Phe-Lys*3-PyrS2-Phe-34ClF-dGlnR*3-NH2 [I-1757]”, the IC50 was below 50 nM.

With “Ac-PL3-Asp-Npg-B5-Asp-3COOHF-Aib-Ala-Phe-Lys*3-PyrS2-3Thi-BztA-GlnR*3-Ala-Ala-[mPEG8]Lys-NH2 [I-1403]”, the IC50 was below 50 nM.

As to “Ac-PL3-Asp-Npg-B5-Asp-3COOHF-Aib-Ala-Phe-[pXyl]Cys-PyrS2-3Thi-BztA-hCys-Ala-NH2 [I-758]”, the concentration for half-maximal inhibition (IC50) is 50 to 200 nM.

With “Ac-PL3-Asp-Chg-B5-Asp-3COOHF-Cbg-Ala-Phe-Lys*3-PyrS2-3Thi-BztA-GlnR*3-Ala-NH2 [I-857]”, the IC50 was below 50 nM.

Consider “Ac-PL3-Asp-Npg-B5-Asp-3COOHF-Aib-Ala-Phe-Lys*3-PyrS2-Phe-34MeF-GlnR*3-NH2 [I-1103]”, for which the 50% inhibitory concentration (IC50) is below 50 nM.

As for “isobutyryl-PL3-Asp-Npg-B5-Asp-3COOHF-Aib-Ala-Phe-Lys*3-PyrS2-Phe-34ClF-GlnR*3-NH2 [I-1563]”, the half-inhibitory concentration (IC50) was below 50 nM.

For “Ac-PL3-Asp-Ile-B5-Asp-3COOHF-CyLeu-Ala-Phe-Lys*3-PyrS2-3Thi-34ClF-GlnR*3-NH2 [I-1040]”, the IC50 is below 50 nM.

Turning to “Ac-PL3-Asp-Npg-B5-Asp-3COOHF-Aib-Ala-Phe-Lys+3-PyrS2-[2IAPAc]2NH2F-BztA-GlnR*3-Ala-NH2 [I-1667]”, the IC50 was 50 to 200 nM.

“Ac-PL3-Asp-DipA-B5-Asp-3COOHF-Ala-Ala-Phe-Lys*3-PyrS2-3Thi-34ClF-GlnR*3-[mPEG8]-Lys-NH2 [I-1701]”: the IC50 was below 50 nM.

On to “Ac-PL3-Asp-Npg-B5-Asp-3COOHF-Aib-Ala-Phe-Lys*3-PyrS2-[Nic]2NH2F-BztA-GlnR*3-Ala-NH2 [I-1754]”, for which the IC50 is below 50 nM.

Take “Ac-PL3-Asp-Ile-B5-Asp-3COOHF-Aib-Ala-Phe-Lys*3-PyrS2-hPhe-34ClF-GlnR*3-Ala-NH2 [I-1315]”: the IC50 is below 50 nM.

For “Ac-PL3-Asp-Npg-B5-Asp-3COOHF-Aib-Ala-Phe-[mXyl]hCys-PyrS2-3Thi-BztA-hCys-Ala-NH2 [I-759]”, the IC50 lay in the range of 50 to 200 nM.

On to “Ac-PL3-Asp-Chg-B5-Asp-3COOHF-Aib-Ala-Phe-Lys*3-PyrS2-Phe-34ClF-GlnR*3-NH2 [I-1048]”, for which the IC50 is below 50 nM.

In the case of “Ac-PL3-SbGlu-Npg-B5-Asp-3COOHF-Aib-Ala-Phe-Lys*3-PyrS2-3Thi-BztA-GlnR*3-Ala-NH2 [I-962]”, the IC50 was above 1000 nM.

For the substance “Ac-PL3-Asp-Ile-B5-Asp-3COOHF-Leu-Ala-Phe-Lys*3-PyrS2-3Thi-BztA-GlnR*3-Ala-NH2 [I-972]”, the IC50 is below 50 nM.

Consider “Ac-PL3-Asp-Cha-B5-Asp-3COOHF-CyLeu-Ala-Phe-Lys*3-PyrS2-2ClF-BztA-GlnR*3-NH2 [I-1529]”, for which the IC50 is below 50 nM.

Regarding “Ac-S5-Ala-Asp-Ile-B5-Asp-Asp-Aib-Ala-Phe-Lys*3-PyrS2-Phe-34ClF-GlnR*3-NH2 [I-1337]”, the half-inhibitory concentration (IC50) is below 50 nM.

In the case of “Ac-PL3-Asp-Npg-B5-Asp-3COOHF-Aib-Ala-Phe-[33Oxe]Cys-PyrS2-3Thi-BztA-aMeC-Ala-NH2 [I-1391]”, the 50% inhibitory concentration (IC50) lay in the range of 50 to 200 nM.

Regarding “Ac-PL3-Asp-Leu-B5-Asp-Asp-DGlnR*3-Ala-Phe-Lys*3-PyrS2-3Thi-BztA-Gln-NH2 [I-609]”, the IC50 was below 50 nM.

Regarding “Ac-PL3-Asp-Ile-B5-Asp-3COOHF-CyLeu-Ala-Phe-Lys*3-PyrS2-3Thi-BztA-GlnR*3-Ala-NH2 [I-730]”, the 50% inhibitory concentration (IC50) was below 50 nM.

For “Ac-PL3-Asp-Cha-B5-Asp-3COOHF-Aib-Ala-Phe-Lys*3-PyrS2-2FF-BztA-GlnR*3-Leu-NH2 [I-1650]”, the IC50 is below 50 nM.

As for “Ac-PL3-Asp-Npg-B5-Asp-3COOHF-Aib-Ala-Phe-Lys*3-PyrS2-2PhF-34ClF-GlnR*3-Leu-Ser-NH2 [I-954]”, the IC50 lay in the range of 200 to 750 nM.

In the case of “Ac-PL3-Asp-Npg-B5-Asp-3COOHF-Aib-Ala-Phe-Lys*3-PyrS2-3Thi-BztA-GlnR*3-Val-Ser-Pro-NH2 [I-1483]”, the IC50 was below 50 nM.

In the case of “Ac-S5-Ala-Hse-Npg-B5-Asp-3COOHF-Aib-Ala-Phe-Lys*3-PyrS2-3Thi-BztA-GlnR*3-Ala-NH2 [I-1220]”, the half-maximal inhibitory concentration (IC50) was in the range of 200 to 750 nM.

On to “Ac-S5-Ile-Asp-Ile-B5-Asp-3COOHF-Aib-Ala-Phe-Lys*3-PyrS2-Phe-34ClF-GlnR*3-NH2 [I-1344]”, for which the concentration for half-maximal inhibition (IC50) was in the range of 50 to 200 nM.

For “Ac-PL3-Asp-Npg-B5-Asp-3COOHF-Aib-Ala-Phe-Lys*3-PyrS2-3Thi-34MeF-GlnR*3-NH2 [I-1098]”, the half-maximal inhibitory concentration (IC50) is below 50 nM.

For “Ac-PL3-Asp-Ile-B5-Asp-3COOHF-Aib-Ala-Phe-Lys*3-PyrS2-3Thi-34MeF-GlnR*3-NH2 [I-1100]”, the IC50 is below 50 nM.

“Ac-PL3-Asp-Npg-B5-Asp-3COOHF-Aib-Ala-3ClF-Lys*3-PyrS2-3Thi-BztA-GlnR*3-Ala-NH2 [I-577]”: the 50% inhibitory concentration (IC50) was below 50 nM.

Consider “Ac-PL3-Asp-DipA-B5-Asn-3COOHF-nLeu-Ala-Phe-Lys*3-PyrS2-3Thi-34ClF-GlnR*3-NH2 [I-1638]”, for which the half-inhibitory concentration (IC50) is below 50 nM.

For “Ac-PL3-Asp-Ile-B5-Asp-3COOHF-Aib-Ala-Phe-1MeK*3-PyrS2-Phe-34ClF-dGlnR*3-Ala-NH2 [I-1762]”, the IC50 is below 50 nM.

“Ac-PL3-Asp-DipA-B5-Asp-3COOHF-CyLeu-Ala-Phe-Lys*3-PyrS2-3Thi-34ClF-GlnR*3-Ala-NH2 [I-1118]”: the IC50 was below 50 nM.

In the case of “Ac-S5-Ala-Asp-Phe-B5-Asp-3COOHF-Aib-Ala-Phe-Lys*3-PyrS2-Phe-34ClF-GlnR*3-NH2 [I-1238]”, the IC50 was below 50 nM.

Regarding “Ac-PL3-Asp-R5-S5-Asp-3COOHF-Aib-Ala-Phe-PyrS2-Lys*3-3Thi-BztA-Ala-GlnR*3-NH2 [I-1484]”, the IC50 was above 1000 nM.

Turning to “Ac-S5-Pro-Asp-Npg-B5-TfeGA-Asp-Aib-Ala-Phe-Lys*3-PyrS2-3Thi-BztA-GlnR*3-Ala-NH2 [I-1334]”, the 50% inhibitory concentration (IC50) is above 1000 nM.

Regarding “Ac-S5-Ala-Hse-Npg-B5-Asp-3COOHF-Aib-Ala-Phe-Lys*3-PyrS2-3Thi-BztA-GlnR*3-Ala-NH2 [I-1198]”, the IC50 was above 1000 nM.

In the case of “Ac-PL3-Asp-Npg-B5-Asp-3COOHF-[isovaleryl]Acp-Ala-Phe-Lys*3-PyrS2-3Thi-BztA-GlnR*3-Ala-NH2 [I-1030]”, the IC50 is below 50 nM.

Turning to “Ac-PL3-Asp-Ile-B5-Asp-3COOHF-Aib-Ala-Phe-AsnR3APyr*3-PyrS2-Phe-34ClF-AsnR*3-NH2 [I-1420]”, the IC50 was below 50 nM.

The term IC50 denotes the midpoint of a concentration-inhibition curve.
